# Literature values as cited in publication PMC5097879 (European journal of medicinal chemistry, 2016).
# By UniProt entry, the sequences of proteins in these tests, tags left out. Residues count along the entry.
# UniProt P17787, 26-502: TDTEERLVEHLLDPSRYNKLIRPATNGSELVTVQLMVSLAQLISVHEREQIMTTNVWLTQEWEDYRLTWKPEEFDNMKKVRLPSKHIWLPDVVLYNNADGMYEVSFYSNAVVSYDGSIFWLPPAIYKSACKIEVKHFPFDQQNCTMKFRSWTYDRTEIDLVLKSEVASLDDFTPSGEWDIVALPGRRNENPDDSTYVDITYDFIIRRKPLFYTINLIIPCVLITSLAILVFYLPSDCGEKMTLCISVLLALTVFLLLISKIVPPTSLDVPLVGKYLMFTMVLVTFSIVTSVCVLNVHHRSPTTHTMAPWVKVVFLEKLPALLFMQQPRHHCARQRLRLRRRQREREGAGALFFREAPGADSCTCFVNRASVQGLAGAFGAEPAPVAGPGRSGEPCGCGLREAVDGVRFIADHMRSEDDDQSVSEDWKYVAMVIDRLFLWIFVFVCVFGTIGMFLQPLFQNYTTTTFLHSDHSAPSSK
# UniProt P43681, 29-627 limits assumed: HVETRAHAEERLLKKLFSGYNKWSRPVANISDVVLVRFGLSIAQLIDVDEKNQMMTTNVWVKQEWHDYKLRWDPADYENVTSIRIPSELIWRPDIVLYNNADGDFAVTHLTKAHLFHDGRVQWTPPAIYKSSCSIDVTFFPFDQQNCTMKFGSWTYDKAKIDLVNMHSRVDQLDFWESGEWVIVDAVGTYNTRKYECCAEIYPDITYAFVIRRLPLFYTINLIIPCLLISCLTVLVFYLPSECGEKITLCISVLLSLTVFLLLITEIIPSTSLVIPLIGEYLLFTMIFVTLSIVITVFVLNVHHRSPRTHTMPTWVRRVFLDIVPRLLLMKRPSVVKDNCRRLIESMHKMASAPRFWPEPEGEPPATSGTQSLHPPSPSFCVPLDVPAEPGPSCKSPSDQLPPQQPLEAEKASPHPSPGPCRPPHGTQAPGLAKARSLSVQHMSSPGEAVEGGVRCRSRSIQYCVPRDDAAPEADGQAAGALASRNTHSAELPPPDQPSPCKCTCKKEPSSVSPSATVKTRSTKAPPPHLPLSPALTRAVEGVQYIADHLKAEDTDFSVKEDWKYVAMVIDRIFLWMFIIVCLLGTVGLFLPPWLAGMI
# How the values were obtained:
# [1] = target: LS α4β2-nAChR (Homo sapiens, UniProt P17787+P43681); conditions: relative to carbamylcholine; ref [8], [9]; cited from earlier work
# [2] = target: HS α4β2-nAChR (Homo sapiens, UniProt P17787+P43681); conditions: relative to carbamylcholine; ref [8], [9]; cited from earlier work
compound,measurement,setting,value
CN1CCC[C@H]1c1cccnc1 [Nicotine],Agonism LS-α4β2 Efficacy,[1],70 ± 5.9%
same,Agonism HS-α4β2 Efficacy,[2],124 ± 8.5%
